# Apparent affinities of Ab-91 variants for a coronavirus HR2 peptide

Binding partner: SARS-CoV-2 spike HR2 peptide, sequence PDVDLGDISGINAS.

Parent scFv Ab-91: VL joined to VH by three GGGGS repeats. Changes lie in the heavy chain CDRs alone.
VL: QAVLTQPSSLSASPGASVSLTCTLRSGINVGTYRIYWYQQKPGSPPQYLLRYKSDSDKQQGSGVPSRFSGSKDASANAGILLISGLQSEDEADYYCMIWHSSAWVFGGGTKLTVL
VH: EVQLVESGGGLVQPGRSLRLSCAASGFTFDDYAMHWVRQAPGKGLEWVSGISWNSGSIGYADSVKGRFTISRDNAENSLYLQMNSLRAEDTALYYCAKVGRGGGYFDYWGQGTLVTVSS

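Phage display of a naive human antibody library on the peptide gave the parent. Library AAYL51 holds single substitutions and randomly drawn double and triple substitutions in the CDRs. The assay is AlphaSeq: two haploid yeast populations carry antibody and antigen on their surface. Binding brings cells together so that they mate, and sequencing counts the barcode pairs among the diploids. Scores were corrected for input abundance and mapped to Kd with protein pairs of known affinity run in the same pool. The assay was run in three technical replicates.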

Substitutions are numbered in sequence along the VH above, starting at 1 (not Kabat).
Scale: log10 of Kd in nM, estimated from mating counts; low values are strong binders.
Averages over replicates are reported, and they cover detected replicates only.
An entry "n.d." has no value in the source: the pair was not observed among the diploids in that replicate. This suggests poor binding but is not conclusive.
Parent in this assay: reference entry 1.86, copy in this library 0.88.
Background: pairings of library AAYL51 with three empty control strains gave a value in 21% of cases (median 4.54, 5th percentile 3.26). Values in that range, when seen in few replicates, are hard to tell from nonspecific mating.

log10 Kd (nM) by replicate,"log10 Kd (nM), mean",changes
n.d. n.d. 4.75,4.75,W53R+G102Q+D107V
n.d. n.d. n.d.,n.d.,S57N+F106E
n.d. n.d. n.d.,n.d.,Y32Q+D62V+R101Y
n.d. 4.13 4.61,4.37,F29I+G50R+G100T
4.02 n.d. n.d.,4.02,F29W+S55T+S57F
n.d. 4.61 4.10,4.35,Y32N+V64T+Y105I
4.63 n.d. n.d.,4.63,G26Y+T28L
n.d. n.d. n.d.,n.d.,H35P+I58N+G104V
5.00 5.00 n.d.,5.00,S55Q+Y60M+V64R
n.d. 5.09 4.31,4.70,W53A+D107R+Y108N
n.d. n.d. n.d.,n.d.,F27H+G104L+D107R
n.d. n.d. n.d.,n.d.,G26P+N54H
2.87 2.57 3.11,2.85,D31P+F106C+D107G
4.80 n.d. n.d.,4.80,S55K+V64T
n.d. n.d. n.d.,n.d.,I51T+V99H
5.96 n.d. n.d.,5.96,D30K+N54A+S57K
n.d. n.d. n.d.,n.d.,G26R+F29G+R101V
2.60 3.11 2.19,2.63,T28N+S55C+Y108N
n.d. n.d. n.d.,n.d.,G26K+H35S+F106Y
n.d. n.d. n.d.,n.d.,H35K+V64W+F106M
n.d. n.d. n.d.,n.d.,M34E+Y105G
n.d. 4.95 n.d.,4.95,F29L+H35Y+V99E
n.d. 4.36 4.58,4.47,G26F+G50A+W53S
n.d. n.d. 2.92,2.92,D31W+G50D
n.d. n.d. n.d.,n.d.,G26N+Y105P
3.89 n.d. n.d.,3.89,F29I+D31V
5.07 n.d. n.d.,5.07,D30V+G59I+G102N
n.d. n.d. n.d.,n.d.,F27K+G50F
6.29 4.26 4.52,5.02,A33K+M34T+D107K
n.d. 3.99 n.d.,3.99,G26V+F106P+Y108K
5.00 n.d. n.d.,5.00,G50N+Y105L
n.d. n.d. n.d.,n.d.,S55W+G56R+I58P
n.d. n.d. n.d.,n.d.,A33P+S52H+V99E
3.86 5.66 n.d.,4.76,A33D+V64D+R101Q
n.d. n.d. n.d.,n.d.,M34D+G56D+Y105N
n.d. n.d. n.d.,n.d.,T28I+H35S+I51E
4.74 n.d. 5.63,5.19,G26E+T28P+M34A
n.d. n.d. n.d.,n.d.,G56P+D62P+K65R

Excerpt, the final 4 entries:

{"changes": "M34D+G56D+Y105N", "log10 Kd (nM) by replicate": "n.d. n.d. n.d.", "log10 Kd (nM), mean": "n.d."}
{"changes": "T28I+H35S+I51E", "log10 Kd (nM) by replicate": "n.d. n.d. n.d.", "log10 Kd (nM), mean": "n.d."}
{"changes": "G26E+T28P+M34A", "log10 Kd (nM) by replicate": "4.74 n.d. 5.63", "log10 Kd (nM), mean": "5.19"}
{"changes": "G56P+D62P+K65R", "log10 Kd (nM) by replicate": "n.d. n.d. n.d.", "log10 Kd (nM), mean": "n.d."}

Source: Engelhart et al. 2022 (doi:10.1038/s41597-022-01779-4), MIT Lincoln Laboratory and A-Alpha Bio; data file from the FLAb repository.